Laboratory results: ChEMBL document CHEMBL5247649, “Comparative Efficacy and Selectivity of Pharmacological Inhibitors of DYRK and CLK Protein Kinases” (J Med Chem, 2023)

Amino acid sequences for entries named in this document (tags omitted). A change or cut given only in a name is not applied to a line headed by its entry.
UniProt P49761: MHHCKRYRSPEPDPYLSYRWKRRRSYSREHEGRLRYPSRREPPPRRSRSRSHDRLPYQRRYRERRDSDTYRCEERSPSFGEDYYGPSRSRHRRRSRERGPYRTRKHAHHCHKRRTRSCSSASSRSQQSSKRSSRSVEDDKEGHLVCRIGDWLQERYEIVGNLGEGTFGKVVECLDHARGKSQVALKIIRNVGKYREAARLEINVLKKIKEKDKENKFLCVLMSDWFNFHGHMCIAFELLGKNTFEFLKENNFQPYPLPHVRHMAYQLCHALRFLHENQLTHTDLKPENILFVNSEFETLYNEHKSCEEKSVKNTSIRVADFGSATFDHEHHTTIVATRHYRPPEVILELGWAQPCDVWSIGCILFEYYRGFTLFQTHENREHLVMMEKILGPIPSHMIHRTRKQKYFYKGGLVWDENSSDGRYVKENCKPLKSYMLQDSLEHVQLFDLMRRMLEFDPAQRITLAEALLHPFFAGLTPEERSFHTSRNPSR
UniProt P49760, whole entry: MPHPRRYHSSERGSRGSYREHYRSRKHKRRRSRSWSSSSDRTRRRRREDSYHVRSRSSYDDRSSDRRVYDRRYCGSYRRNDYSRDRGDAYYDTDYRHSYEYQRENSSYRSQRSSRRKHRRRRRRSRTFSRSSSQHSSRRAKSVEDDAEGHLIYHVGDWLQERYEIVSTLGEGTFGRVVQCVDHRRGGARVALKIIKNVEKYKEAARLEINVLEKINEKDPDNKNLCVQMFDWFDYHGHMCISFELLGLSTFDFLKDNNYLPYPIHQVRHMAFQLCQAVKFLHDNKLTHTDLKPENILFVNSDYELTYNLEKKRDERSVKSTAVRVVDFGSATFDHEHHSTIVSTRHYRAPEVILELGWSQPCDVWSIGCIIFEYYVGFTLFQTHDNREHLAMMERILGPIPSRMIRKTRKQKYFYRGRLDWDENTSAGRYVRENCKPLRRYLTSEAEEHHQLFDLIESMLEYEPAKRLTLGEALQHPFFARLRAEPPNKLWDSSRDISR
UniProt P49841: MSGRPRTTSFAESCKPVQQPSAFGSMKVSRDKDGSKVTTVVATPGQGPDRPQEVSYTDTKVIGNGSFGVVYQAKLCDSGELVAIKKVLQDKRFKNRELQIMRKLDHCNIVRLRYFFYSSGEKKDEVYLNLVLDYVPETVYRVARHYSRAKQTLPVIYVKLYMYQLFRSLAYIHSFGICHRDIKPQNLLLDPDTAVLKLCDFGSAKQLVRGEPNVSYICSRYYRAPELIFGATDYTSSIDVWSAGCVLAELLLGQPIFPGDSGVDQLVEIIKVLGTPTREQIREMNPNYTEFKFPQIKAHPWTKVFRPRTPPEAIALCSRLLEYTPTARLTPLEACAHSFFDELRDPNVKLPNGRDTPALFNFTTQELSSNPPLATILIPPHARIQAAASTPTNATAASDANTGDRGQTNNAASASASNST

Legend:
[1] = target: Dual specificity protein kinase CLK3 (Homo sapiens, UniProt P49761); assay: biochemical
[2] = target: Dual specificity protein kinase CLK2 (Homo sapiens, UniProt P49760); assay: biochemical
[3] = target: T1, Dual specificity tyrosine-phosphorylation-regulated kinase 2 (Homo sapiens, UniProt Q92630); assay: biochemical
T1 sequence (Q92630 whole entry): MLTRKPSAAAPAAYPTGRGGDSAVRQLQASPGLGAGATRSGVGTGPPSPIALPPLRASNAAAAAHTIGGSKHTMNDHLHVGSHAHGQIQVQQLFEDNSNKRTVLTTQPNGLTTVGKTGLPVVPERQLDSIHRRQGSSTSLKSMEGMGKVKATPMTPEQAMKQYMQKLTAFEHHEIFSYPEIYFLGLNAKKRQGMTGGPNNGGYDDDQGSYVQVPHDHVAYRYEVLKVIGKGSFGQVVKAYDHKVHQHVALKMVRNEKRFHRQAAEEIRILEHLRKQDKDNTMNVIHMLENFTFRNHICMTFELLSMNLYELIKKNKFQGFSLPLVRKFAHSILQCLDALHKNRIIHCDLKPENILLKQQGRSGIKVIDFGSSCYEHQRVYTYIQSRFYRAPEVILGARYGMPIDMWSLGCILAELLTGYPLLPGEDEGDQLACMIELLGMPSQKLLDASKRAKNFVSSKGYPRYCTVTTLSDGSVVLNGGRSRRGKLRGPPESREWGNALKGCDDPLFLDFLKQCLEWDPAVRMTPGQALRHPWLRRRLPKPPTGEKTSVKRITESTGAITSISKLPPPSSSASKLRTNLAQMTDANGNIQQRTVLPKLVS

[4] = target: T2, Dual specificity tyrosine-phosphorylation-regulated kinase 3 (Homo sapiens, UniProt O43781); assay: biochemical
T2 sequence (O43781 whole entry): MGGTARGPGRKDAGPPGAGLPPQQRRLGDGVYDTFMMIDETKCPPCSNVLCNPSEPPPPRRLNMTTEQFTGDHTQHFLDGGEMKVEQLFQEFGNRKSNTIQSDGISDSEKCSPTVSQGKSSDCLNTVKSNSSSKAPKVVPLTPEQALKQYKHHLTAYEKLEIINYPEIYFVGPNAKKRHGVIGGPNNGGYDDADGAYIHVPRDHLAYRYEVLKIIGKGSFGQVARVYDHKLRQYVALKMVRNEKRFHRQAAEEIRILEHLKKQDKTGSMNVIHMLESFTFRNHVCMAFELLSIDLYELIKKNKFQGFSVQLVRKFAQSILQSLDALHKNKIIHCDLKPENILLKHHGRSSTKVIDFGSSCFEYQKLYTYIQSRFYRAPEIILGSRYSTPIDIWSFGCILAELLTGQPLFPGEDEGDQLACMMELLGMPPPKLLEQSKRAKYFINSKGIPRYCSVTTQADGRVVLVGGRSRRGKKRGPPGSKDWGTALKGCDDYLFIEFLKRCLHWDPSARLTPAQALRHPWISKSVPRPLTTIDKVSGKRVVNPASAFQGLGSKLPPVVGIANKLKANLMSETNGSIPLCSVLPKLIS

[5] = target: T3, Dual specificity tyrosine-phosphorylation-regulated kinase 4 (Homo sapiens, UniProt Q9NR20); assay: biochemical
T3 sequence (Q9NR20 whole entry): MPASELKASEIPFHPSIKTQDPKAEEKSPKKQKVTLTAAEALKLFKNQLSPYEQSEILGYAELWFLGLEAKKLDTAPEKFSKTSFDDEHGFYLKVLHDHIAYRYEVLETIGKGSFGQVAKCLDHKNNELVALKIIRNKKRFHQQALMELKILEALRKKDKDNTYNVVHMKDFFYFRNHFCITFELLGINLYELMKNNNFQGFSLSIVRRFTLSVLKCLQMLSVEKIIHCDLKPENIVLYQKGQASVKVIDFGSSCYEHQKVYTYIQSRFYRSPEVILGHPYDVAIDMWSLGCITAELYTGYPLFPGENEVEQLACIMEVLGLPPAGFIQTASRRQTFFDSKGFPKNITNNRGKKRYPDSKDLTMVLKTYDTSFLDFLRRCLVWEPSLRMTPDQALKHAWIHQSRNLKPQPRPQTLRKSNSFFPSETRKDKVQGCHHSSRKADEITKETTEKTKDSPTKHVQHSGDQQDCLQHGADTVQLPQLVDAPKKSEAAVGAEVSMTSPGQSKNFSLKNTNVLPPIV

[6] = target: T4, Glycogen synthase kinase-3 beta (Homo sapiens, UniProt P49841)
[7] = target: T4, Glycogen synthase kinase-3 beta; assay: biochemical

CCOC(=O)c1c(/C(C#N)=C\N)c2ccc(Cl)c(Cl)c2n1C
IC50 [1]: 966 nM

CN1CCN(c2cc(C(=O)Nc3cc4cc(-c5cnn(C)c5)ccc4cn3)ccn2)CC1
IC50 [2]: 3.6 nM | IC50 [3]: 40.7 nM | IC50 [4]: 2100 nM | IC50 [5]: 86.4 nM

COc1ccc2nc3c(CO)cc(OC)cc3c(SC[C@H]3CCNC3)c2c1
IC50 [4]: 112 nM

CC(C)CN1CCC(C(=O)Nc2cc3cc(-c4cnn(C)c4)ccc3cn2)CC1
Kd [6]: 6.21 nM | IC50 [7]: 45.6 nM

CCN1CCN(Cc2ccc(Nc3ncc(F)c(-c4cc(F)c5nc(C)n(C(C)C)c5c4)n3)nc2)CC1 [ABEMACICLIB]
IC50 [3]: 25.4 nM
